According to patent EP4837581A1, “COMPOSITION COMPRISING TUBULIN INHIBITOR FOR PREVENTING OR TREATING SKIN DISEASES” (dated 2026):

How the values were obtained:
TNF-α = assay: HEK-Blue colorimetric reporter cell line, TNF-α signaling; settings: 1 µM drug, signaling inducer after 6 hours, measured at OD630mm; FIG. 1
Protocol: (§1) HEK293 cell lines (Promega) having genes with a colorimetric function inserted into respective signaling promoters of TNF-α, IL-2, IL-4/13, IL-6, IL-12, IL-17, and IL-23 were purchased. The degree of signaling in each cell line may be measured based on the degree to be developed in blue when each signaling was induced.
(§2) Each HEK-Blue cell line was treated with a drug of 1 µM ABT-751 or 1 µM TN-16, and then after 6 hours, a signaling inducer was treated to each cell line.

IL-6 = assay: HEK-Blue colorimetric reporter cell line, IL-6 signaling; settings: 1 µM drug, signaling inducer after 6 hours, measured at OD630mm; FIG. 1
Protocol: as §1, §2

Claudin-1 [1] = assay: Tight junction expression in NHEKs, RT-qPCR; settings: 1 µM, after 6 hours, compared to the control group; FIG. 5A
Protocol: (§3) To confirm whether the tubulin inhibitor of the present disclosure was involved in tight junctions, the expression levels of Claudin-1, ZO-1, and Occludin were measured using reverse transcription real-time polymerase chain reaction (RT-qPCR).
(§4) Intracellular RNA was extracted from NHEKs coated with 1 µM concentration of ABT-751 or TN-16, respectively, after 6 hours using an RNeasy mini kit (Qiagen). After reverse transcription of the extracted RNA into cDNA using an ImProm-II™ Reverse Transcription kit (Promega), the expression levels of Claudin-1, ZO-1, and Occludin present in skin cells were measured by a quantitative PCR (qPCR) method using the Real-Time PCR Detection System (Bio-Rad, CFX96).

ZO-1 [2] = assay: Tight junction expression in NHEKs, RT-qPCR; settings: 1 µM, after 6 hours, compared to the control group; FIG. 5A
Protocol: as §3, §4

Occludin [3] = assay: Tight junction expression in NHEKs, RT-qPCR; settings: 1 µM, after 6 hours, compared to the control group; FIG. 5A
Protocol: as §3, §4

MMP-9 = assay: UV-induced MMP expression in NHEK cells, qPCR; settings: compared to the control group irradiated with only UV; UV 30 minutes after application; 'mostly' reduced; FIG. 2
Protocol: (§5) The human NHEK cells were applied with ABT-751 or TN-16, respectively, and irradiated with UV light after 30 minutes to induce photoaging. For comparison and verification of ABT-751 or TN-16, an untreated negative control group and a positive control group irradiated only with UV-A were reflected in the experiment.
(§6) RNA was extracted from skin cells after application and UV irradiation experiment completion. After reverse transcription of the extracted RNA into cDNA, the amounts of MMP-1, MMP-3, and MMP-9 present in skin tissue were measured using a real-time PCR machine by a quantitative PCR (qPCR) method.
(§7) Specifically, a photoaging inhibitory effect of ABT-751 or TN-16 was measured through changes in the expression levels of Matrix Metalloproteinase (MMP) proteins as described above. That is, the expression levels of the MMP proteins were measured in each of a control group irradiated with only UV and an experimental group irradiated with UV after applying ABT-751 or TN-16, respectively, to measure the degree of inhibiting the expression levels of MMP proteins by applying ABT-751 or TN-16, respectively.

MMP-1 = assay: UV-induced MMP expression in NHEK cells, qPCR; settings: compared to the control group irradiated with only UV; UV 30 minutes after application; 'mostly' reduced; FIG. 2
Protocol: as §5, §6, §7

MMP-3 = assay: UV-induced MMP expression in NHEK cells, qPCR; settings: compared to the control group irradiated with only UV; UV 30 minutes after application; 'mostly' reduced; FIG. 2
Protocol: as §5, §6, §7

Claudin-1 [4] = assay: Tight junction protein expression in NHEKs, Western blot; settings: 1 µM, after 24 hours, compared to the control group; FIG. 5B
Protocol: (§8) In addition, intracellular proteins were extracted from NHEKs coated with 1 µM concentration of ABT-751 or TN-16, respectively, after 24 hours. The expression levels of Claudin-1, ZO-1, and Occludin proteins present in skin cells among the extracted proteins were measured using Western blot.
(§9) A portion of the collected tissue was homogenized using a tissue homogenizer (Daihan Science Co.), lysed using a cell lysis buffer (RIPA buffer, Invitrogen), and centrifuged using a centrifuge (Labogene), and the supernatant was transferred to a new tube to be used as a protein sample.
(§10) 30 µg of protein samples was loaded onto a PAGE gel (Invitrogen) with a concentration gradient of 4% to 12%, and SDS-PAGE was performed using a running buffer (Invitrogen) and an electrophoresis device (Bio-Rad) to separate the proteins by molecular weight. The separated proteins were transferred to a PVDF thin film (Bio-Rad) and then blocked with a 5% blocking solution (Skim milk; BD).
(§11) The thin film was reacted with claudin-1, ZO-1, occludin antibody (Santa Cruz), or Actin antibody (Abcam) for 16 hours, washed, and then reacted again with a secondary antibody for 1 hour and washed.
(§12) The thin film was reacted with an ECL solution (Thermo Fisher), and then the reacted protein was detected using a luminescence measuring instrument (Fusion Solo, Vilber).

ZO-1 [5] = assay: as above; settings: 1 µM, after 24 hours, compared to the control group; FIG. 5B
Protocol: as §8, §9, §10, §11, §12

Occludin [6] = assay: as above; settings: 1 µM, after 24 hours, compared to the control group; FIG. 5B
Protocol: as §8, §9, §10, §11, §12

[7] = tested on: normal human epidermal keratinocyte (NHEK); assay: Skin cell differentiation, phase-contrast microscopy; settings: 1 µM, day 5 of differentiation, compared to an untreated control group; FIG. 4
Protocol: After applying ABT-751 or TN-16 using a normal human epidermal keratinocyte (NHEK), the degree of skin cell differentiation was observed and compared with the control group.
The cells were treated with ABT-751 or TN-16 at a concentration of 1 µM, respectively, and then the degree of skin cell differentiation was observed daily using a phase-contrast microscope.

Tyrosinase = assay: In vitro tyrosinase activity inhibition experiment; settings: 1.0 µM, 2 mM L-tyrosine substrate, 37°C, absorbance at 490 nm; FIG. 6
Protocol: This test was a method for evaluating the degree of inhibiting tyrosinase activity in vitro.
The whitening effect of ABT-751 or TN-16 was confirmed by measuring the effect through an in vitro tyrosinase activity inhibition experiment during in vivo experiments. Kojic acid, known to inhibit the tyrosinase activity, was used as a comparative group.
Through the tyrosinase activity inhibition experiment, ABT-751 or TN-16 was treated to a concentration of 1.0 µM in a 2 mM L-tyrosine substrate and measured at 490 nm absorbance, and then added with tyrosinase and reacted at 37°C. After measuring the absorbance at 490 nm again, the absorbance value was calculated to determine the degree to inhibit the tyrosinase activity of ABT-751 or TN-16.

IL-17 = assay: HEK-Blue colorimetric reporter cell line, IL-17 signaling; settings: 1 µM drug, signaling inducer after 6 hours, measured at OD630mm; FIG. 1
Protocol: as §1, §2

IL-23 = assay: HEK-Blue colorimetric reporter cell line, IL-23 signaling; settings: 1 µM drug, signaling inducer after 6 hours, measured at OD630mm; FIG. 1
Protocol: as §1, §2

NF-κB = NF-κB promoter luminescent reporter assay in HEK cells induced with TNF-α; settings: 1.0 µM, 24 hours of drug treatment, compared with TPCA1, FIG. 3
Protocol: In the experiment, biochemical changes in cells were confirmed through treatment of HEK293 cell lines with ABT-751 or TN-16 to test the inflammatory response.
A human embryonic kidney cell line (HEK) was inserted with a lucifer luminescent gene having an NFkb promoter using a Fugene4K reagent (Promega), and then treated with TNF-α after 6 hours to induce inflammation and NfKb signaling. After 18 hours, ABT-751 or TN16 was treated at a concentration of 1.0 µM.
After 24 hours of drug treatment, an Nfkb signaling mechanism inhibition effect according to treatment of each tubulin inhibitor was measured using a kit (Promega) for measuring the level of lucifer luminescence, and the results were shown in FIG. 3.

SMILES | signaling of inflammatory cytokine TNF-α (TNF-α) | signaling of inflammatory cytokine IL-6 (IL-6) | expression level of Claudin-1 (RT-qPCR) (Claudin-1 [1]) | expression level of ZO-1 (RT-qPCR) (ZO-1 [2]) | expression level of Occludin (RT-qPCR) (Occludin [3]) | expression level of MMP-9 (MMP-9) [%] | expression level of MMP-1 (MMP-1) [%] | expression level of MMP-3 (MMP-3) [%] | expression level of Claudin-1 protein (Western blot) (Claudin-1 [4]) | expression level of ZO-1 protein (Western blot) (ZO-1 [5]) | expression level of Occludin protein (Western blot) (Occludin [6]) | degree of skin cell differentiation [7] | degree to inhibit the tyrosinase activity (Tyrosinase) | signaling of inflammatory cytokine IL-17 (IL-17) | signaling of inflammatory cytokine IL-23 (IL-23) | NF-kB signaling (NF-κB)
CC(Nc1ccccc1)=C1C(=O)NC(Cc2ccccc2)C1=O (centres unmarked) | reduction | reduction | increased | increased | increased | ≤ 50 | ≤ 50 | ≤ 50 | increased | increased | increased | significantly increases | exhibited an effect of inhibiting melanin production | reduction | reduction | inhibited NF-kB signaling similarly to TPCA1
COc1ccc(S(=O)(=O)Nc2cccnc2Nc2ccc(O)cc2)cc1 | reduction | reduction | increased | increased | increased | ≤ 50 | ≤ 50 | ≤ 50 | increased | increased | increased | significantly increases | exhibited an effect of inhibiting melanin production | reduction | reduction | inhibited NF-kB signaling similarly to TPCA1
